From US20140256912A1, “Stabilized Variant MAML Peptides and Uses Thereof” (PRESIDENT AND FELLOWS OF HARVARD COLLEGE, priority 2011, published 2014)

Amino acid sequences for entries named in this document (tags omitted). Residues count along the entry.
UniProt P46531, 1761-2127: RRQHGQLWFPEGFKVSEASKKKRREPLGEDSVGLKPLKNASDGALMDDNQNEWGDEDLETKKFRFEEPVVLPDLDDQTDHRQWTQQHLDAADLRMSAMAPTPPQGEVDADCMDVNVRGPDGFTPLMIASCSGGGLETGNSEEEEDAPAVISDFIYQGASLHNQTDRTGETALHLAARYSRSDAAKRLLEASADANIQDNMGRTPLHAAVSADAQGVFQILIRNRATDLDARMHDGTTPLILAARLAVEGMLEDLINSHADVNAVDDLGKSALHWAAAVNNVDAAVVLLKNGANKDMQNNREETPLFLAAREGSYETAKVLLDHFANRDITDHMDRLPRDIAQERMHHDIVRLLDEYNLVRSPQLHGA
UniProt Q06330, 23-449: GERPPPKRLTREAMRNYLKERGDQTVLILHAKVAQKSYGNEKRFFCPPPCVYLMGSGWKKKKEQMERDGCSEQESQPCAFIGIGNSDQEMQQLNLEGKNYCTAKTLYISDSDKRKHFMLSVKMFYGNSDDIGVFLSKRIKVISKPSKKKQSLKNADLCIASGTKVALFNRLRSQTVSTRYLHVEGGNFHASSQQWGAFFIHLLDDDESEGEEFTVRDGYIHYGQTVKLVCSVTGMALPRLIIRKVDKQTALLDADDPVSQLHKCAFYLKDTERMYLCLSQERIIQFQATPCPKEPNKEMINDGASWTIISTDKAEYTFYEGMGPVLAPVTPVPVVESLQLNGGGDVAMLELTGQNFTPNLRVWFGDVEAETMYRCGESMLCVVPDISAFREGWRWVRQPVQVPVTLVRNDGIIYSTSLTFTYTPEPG

Target: T1, RAMANK1-CSL complexes (Homo sapiens, UniProt P46531+Q06330)
T1 construct: RAMANK1 (residues 1761-2127); Human CSL bearing a C-terminal hexahistidine tag (residues 9-435); hexahistidine (His6) (C); made in house; host or cells: E. coli BL21(DE3) pLysS
Assay: Surface plasmon resonance binding of immobilized biotinylated peptides to soluble equimolar RAMANK1 and CSL
Conditions: truncation to the N-terminal helix
Procedure: SPR was used to measure the binding kinetics between the immobilized bio-sdnMAML1 peptide and equimolar RAMANK1-CSL complexes, which confirmed high-affinity binding (KD=0.04 μM, FIG. 2c). To our knowledge, these experiments represent the first reported affinity for dnMAML1 to any component of the NTC.
Human CSL bearing a C-terminal hexahistidine tag (residues 9-435), RAMANK1 (residues 1761-2127) and GST-labeled RAMANK1 were expressed in BL21(DE3) pLysS cells (Stratagene) and purified as previously described^37.
A Biacore 3000 SPR-Instrument (Biacore-GE, Upsala, Sweden) was used to measure binding of Bio-sdnMAML1, Bio-sntdnMAML1 and Bio-SAHM1 peptides to soluble complexes of RAMANK1 and CSL. Peptides were dissolved in biacore binding buffer (20 mM Tris pH 8.4, 150 mM NaCl, 1 mM DTT, 1 mM EDTA and 0.05% P-20) and immobilized on a discrete flow cells of a streptavidin-CM5 Biacore chip by injection at 10 μL/min for 10 minutes. Equimolar dilutions of RAMANK1 and CSL (two-fold dilutions from 1 μM to 0.03125 μM, including two blanks) were mixed in biacore binding buffer and injected for 120-180 seconds onto the peptide-functionalized surface to measure NTC association kinetics, after which time NTC flow was stopped and buffer was injected to measure peptide dissociation kinetics. […]

Structure (SMILES): CCCC[C@H](NC(=O)[C@@H](NC(=O)[C@H](C)NC(=O)[C@H](CO)NC(=O)CCNC(=O)CCOCCOCCOCCNC(=O)CCCC[C@@H]1SC[C@@H]2NC(=O)N[C@@H]21)C(C)C)C(=O)N[C@@H](CCC(=O)O)C(=O)N[C@@H](CCCNC(=N)N)C(=O)N[C@@H](CC(C)C)C(=O)N[C@@H](CCCNC(=N)N)C(=O)N[C@@H](CCCNC(=N)N)C(=O)N[C@@H](CCCNC(=N)N)C(=O)N[C@H](C(=O)N[C@@H](CCC(=O)O)C(=O)N[C@@H](CC(C)C)C(=O)N[C@@H](CS)C(=O)N[C@@H](CCCNC(=N)N)C(=O)N[C@@H](CCCNC(=N)N)C(=O)N[C@@H](Cc1c[nH]cn1)C(=O)N[C@@H](Cc1c[nH]cn1)C(=O)N[C@@H](CO)C(=O)N[C@H](C(=O)N[C@@H](CS)C(=O)N[C@@H](CCC(=O)O)C(=O)N[C@@H](C)C(=O)N[C@@H](CCCNC(=N)N)C(=O)N[C@@H](Cc1ccc(O)cc1)C(=O)N[C@@H](CCC(=O)O)C(=O)N[C@@H](C)C(=O)N[C@H](C(=O)N[C@@H](CO)C(N)=O)C(C)C)[C@@H](C)O)[C@@H](C)CC [bio-nt-sdnMAML1]
- decrease of affinity relative to s-dnMAML1: approximately 10 fold
